Laboratory results: US20040176431A1, “Antiproliferative 2-(sulfo-phenyl)-aminothiazole derivatives and pharmaceutical compositions, and methods for their use” (Pfizer, Inc., priority 2003, published 2004)

Protein sequences, listed by entry. Tags and fused reporters are not part of them. Residues count along the entry.
UniProt P11802, whole entry: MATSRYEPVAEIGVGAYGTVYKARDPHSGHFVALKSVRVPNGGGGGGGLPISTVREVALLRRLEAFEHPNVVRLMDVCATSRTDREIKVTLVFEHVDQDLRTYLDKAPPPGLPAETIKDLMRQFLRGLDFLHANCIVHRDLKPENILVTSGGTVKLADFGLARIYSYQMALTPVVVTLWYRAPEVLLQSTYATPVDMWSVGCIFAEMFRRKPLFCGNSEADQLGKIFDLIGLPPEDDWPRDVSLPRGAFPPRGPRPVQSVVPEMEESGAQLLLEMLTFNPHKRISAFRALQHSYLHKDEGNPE
UniProt P30281, 1-264 partner limits assumed: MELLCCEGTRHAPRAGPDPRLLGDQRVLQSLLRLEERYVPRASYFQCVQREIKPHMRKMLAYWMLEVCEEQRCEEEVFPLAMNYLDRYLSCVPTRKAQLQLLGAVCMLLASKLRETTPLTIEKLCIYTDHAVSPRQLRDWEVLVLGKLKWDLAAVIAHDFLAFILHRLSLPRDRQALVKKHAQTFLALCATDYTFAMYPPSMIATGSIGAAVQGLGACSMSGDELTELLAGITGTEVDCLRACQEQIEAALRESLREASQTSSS

Tests used:
[1] = system: HCT-116 cells; experiment: Inhibition of cell growth (MTT tetrazolium salt assay); settings: read-out: HCT116 IC50, 50% inhibition of growth, first value of cell
Experimental: Inhibition of cell growth was measured using the tetrazolium salt assay, which is based on the ability of viable cells to reduce 3-(4,5-dimethylthiazol-2-yl)-2,5-[2H]-diphenyltetrazolium bromide (MTT) to formazan (Mosmann, J. Immunol. Meth., 65, 55-63 (1983)). The water-insoluble purple formazan product was then detected spectrophotometrically. HCT-116 cells were grown in 96-well plates. Cells were plated in the appropriate medium at a volume of 135 μl/well in either McCoy's 5A Medium. Plates were incubated for four hours before addition of inhibitor compounds. Different concentrations of inhibitor compounds were added in 0.5% (v/v) dimethylsulfoxide (15 μL/well), and cells were incubated at 37° C. (5% CO2) for four to six days (depending on cell type). At the end of the incubation, MTT was added to a final concentration of 0.2 mg/mL, and cells were incubated for 4 hours more at 37° C. After centrifugation of the plates and removal of medium, the absorbance of the formazan (solubilized in dimethylsulfoxide) was measured at 540 nm. The concentration of inhibitor compound causing 50%(IC50) or 90%(IC50) inhibition of growth was determined from the linear portion of a semi-log plot of inhibitor concentration versus percentage inhibition. All results were compared to control cells treated only with 0.5% (v/v) dimethylsulfoxide.

[2] = biological target: CDK4/cyclin D3 (Homo sapiens, UniProt P11802); experiment: Inhibition of CDK4/Cyclin D retinoblastoma kinase activity; settings: read-out: Ki CDK4/D3; apparent Ki, Rb fragment substrate

| Structure (SMILES) | pIC50 [1] | pKi [2] |
| --- | --- | --- |
| Nc1nc(Nc2ccc(S(=O)(=O)NCC3CCNCC3)cc2)sc1C(=O)c1c(F)cccc1F | < 4.60 | – |
| Cc1cc(C(=O)c2sc(Nc3ccc(S(N)(=O)=O)cc3)nc2N)c(C)s1 | 6.21 | 8.26 |

pIC50, pKi: −log10 of the molar value.
